## Binding of CDR-mutated scFvs to a peptide of the spike HR2 region

Data: MIT Lincoln Laboratory AlphaSeq set, Li et al. 2023, doi:10.1038/s41467-023-39022-2, as distributed in FLAb.

The target is the same throughout: PDVDLGDISGINAS, from the HR2 region of SARS-CoV-2 spike.

Parent: Ab-14, a human scFv built as VH, three GGGGS repeats, VL. Only the CDRs of the light chain vary.
VH: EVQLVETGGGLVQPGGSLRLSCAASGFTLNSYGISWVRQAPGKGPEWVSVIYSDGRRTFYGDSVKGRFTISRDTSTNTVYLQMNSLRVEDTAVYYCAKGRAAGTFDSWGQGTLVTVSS
VL: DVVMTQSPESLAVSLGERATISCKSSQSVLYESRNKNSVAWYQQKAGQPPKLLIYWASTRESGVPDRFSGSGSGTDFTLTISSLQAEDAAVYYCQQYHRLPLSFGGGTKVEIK

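The starting antibody came from a phage panning campaign against this peptide. These sequences belong to a second round, designed from the earlier measurements on random variants of the parent. Group labels follow the data file (Ctrl: baseline library sampled from a position-specific scoring matrix, with some repeated check sequences; En: ensemble of fine-tuned language models; GP: Gaussian process model; HC: hill climbing; Gen: genetic algorithm; Gibbs: Gibbs sampling; a sequence that several methods proposed may carry one label only). The assay is AlphaSeq: two haploid yeast populations carry antibody and antigen on their surface. Binding brings cells together so that they mate, and sequencing counts the barcode pairs among the diploids. Read counts were normalised to the haploid input and turned into Kd by a linear fit to BCL2-family pairs of known affinity, for each replicate. Each pool was mated in six replicate cultures.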

Variants are written as CDR1, CDR2 and CDR3 of the light chain (limits as in the source). Parent: KSSQSVLYESRNKNSVA, WASTRES, QQYHRLPLS.
Values are apparent Kd, the geometric mean of the replicates that gave a signal; lower means stronger binding.
"nd" means that the variant was in the library but no mating with the target was seen in any replicate; the authors take this as a sign of poor binding, and no number exists.
Of ten entries with the parent sequence, four were seen in most replicates (averages 2.2 nM to 240 nM), three in one and three in none, so single entries are noisy.

apparent Kd | replicates with signal | CDR-L1 | CDR-L2 | CDR-L3 | group
1.8 nM | 6 of 6 | KLPLATMQESVSKNSVA | ELSTRGS | QQYHRLPLS | En_HC
1.4 nM | 6 of 6 | HLSKPWELGHPSTNAVA | NNDVAMA | QQYSRLPLS | En_Gibbs
1.1 nM | 6 of 6 | VLSASELYEDRPKNSVA | NASQRMQ | QQYHRLPLS | GP_Gibbs
1.2 nM | 6 of 6 | HLSQSVDMESVHKNSIA | DLMTRES | QQYHRLPLS | En_HC
5.6 nM | 6 of 6 | KVSQSVLYNSRNKNSVA | WASTRES | QQYHRLPLS | Ctrl
nd | 0 of 6 | KSSQSVLYDSRNKNSVA | WASTRES | VQYHRLPLS | Ctrl
16 nM | 6 of 6 | KSSQSVGYESTYKNSVA | WASTRES | QQYHRLPLS | Ctrl
1.9 nM | 6 of 6 | KFSQSWIYESRNKNSVA | GASTRES | QQYHRLPLS | GP_HC
2.5 nM | 6 of 6 | KVSQSELYESRNKNSVA | DASQRES | QQYHRLPLS | GP_Gen
nd | 0 of 6 | TISQMYFIESKNRNNVA | EMTTREN | QDYDRLPLS | En_HC
7.9 nM | 6 of 6 | TISQITSLFSQTTNNVA | EVSTREN | QQYDRLPLS | En_Gen
40 nM | 6 of 6 | SFHEINMEGLATTANVA | NASQLFE | QSYFRLPLT | En_Gibbs
77 nM | 3 of 6 | KMQSHLFQDFAIWNNIA | EREQVAE | QQYFQLPLV | En_Gibbs
23 nM | 6 of 6 | KSSDSVLGESRNKNSVA | WASTRES | QQYHRLPLS | Ctrl
nd | 0 of 6 | KSSQSVRYESRNKNSVA | WASTRES | QQYHRLPLS | Ctrl
36 nM | 6 of 6 | MIGEMLMQGQYIRNSVA | QANIRAQ | QHYHRLPLE | En_Gen
8.5 nM | 6 of 6 | KESQSVLYEWRNKNSVA | DASTRES | QQYHRLPLS | GP_HC
1.8 nM | 6 of 6 | YLSQSVQYESRNKNSVA | SASTREY | QQYHRLPLM | GP_Gibbs
2.0 nM | 6 of 6 | KISGYLNKESKAKNNVA | EMVNRES | QQYDRLPLS | En_HC
110 nM | 6 of 6 | KLSWTCTGDLNQMHSVA | ESEVAVD | QQYAHLPLT | En_Gibbs
430 pM | 6 of 6 | KVSQSVLYESRNKFSVA | NASTRES | QQYHRLPLS | GP_Gen
29 nM | 6 of 6 | KIRQSVLYESRNKNSVA | WASTRES | QQYHVLPLS | Ctrl
540 nM | 2 of 6 | TISQSTYWESFNKNSVA | QTSTRME | QDYDRLPLS | En_HC
9.5 nM | 6 of 6 | KSSGADLYESRNKNSVA | WASTRED | QQYHRLPLS | Ctrl
150 nM | 2 of 6 | KWEQSDNYESRNKNSVA | WASTRES | QQYHRLPLS | Ctrl
77 nM | 1 of 6 | KSSQSVLYEWNNPNSVA | WASTRES | QQYHRLPLS | Ctrl
nd | 0 of 6 | HISYSMAHLSKNKNSVA | NQQTREQ | QQYHRLPLS | En_HC
460 pM | 6 of 6 | KLEQSTLYESRNKNSVA | NASQRLS | QQYHRLPLS | GP_Gen
290 pM | 6 of 6 | HMSQSVLYESRNKNSVA | DASTRET | QQYHRLPLS | Ctrl
1.5 nM | 6 of 6 | KFSQWVLYESREKNSVA | NASTRES | QQYHRLPLS | GP_HC
1.1 nM | 6 of 6 | ALGDVTRMEQNKKNSIA | DMSNRES | QQYHRLPLS | En_HC
670 pM | 6 of 6 | KVSQSAWMESRNANSVA | NASTREE | QQYHRLPLS | GP_Gibbs
1.3 nM | 6 of 6 | KIGMTLNMLMHKKNNVA | DLVERAN | QQYFRLPLS | En_Gen
900 pM | 6 of 6 | SLMQSVLYESRNKNSVA | HASTRED | QQYHRLPLS | GP_HC
190 pM | 6 of 6 | KVPQSMLYESRNANNVA | AASQRES | QQYHRLPLS | GP_Gibbs
600 pM | 6 of 6 | KWSQSVLYESRNKNSVA | DASTRSS | QQYHRLPLS | GP_HC
29 nM | 6 of 6 | KSSQSVLGESNNKNSVA | WASTRES | QSYHRLPLS | Ctrl
120 nM | 6 of 6 | NSSQSVLYESRRKNSVA | NASTRES | QQYHRLPLS | Ctrl
1.0 nM | 6 of 6 | KASDGELYESRDDNSVA | NASKRLS | QQYHRLPLS | GP_Gibbs
1.3 nM | 6 of 6 | KLSQSELYESRLKNSVA | NASTRES | QQYHRLPLS | GP_Gen
14 nM | 6 of 6 | KLSLSVLLESRNVNAVA | EASTRES | QDYHRLPLS | GP_Gibbs
62 nM | 3 of 6 | MISQLMNMGQFAINSVA | QANERSN | QQYDRLPLM | En_Gen
3.8 nM | 6 of 6 | RVRNEMGKEMERGQSVA | ETEQRCM | QQYAQLPLI | En_Gibbs
5.6 nM | 6 of 6 | HISQSFMTESVWRNNVA | HQSTREQ | QQYDRLPLS | En_HC
32 nM | 1 of 6 | QSSQSVLYEFRNKNSVA | SASTRES | QQYKILPLS | Ctrl
140 nM | 1 of 6 | KSSTSVLYESRNKNSVA | WAFTRES | QQYHRLPLS | Ctrl
360 pM | 6 of 6 | KVSQSPLYESRNKNSVA | DASTRES | QQYHRLPLS | GP_Gen
4.5 nM | 5 of 6 | KLSQSVLMESRNKNSVA | EASTRES | QAYHRLPLS | GP_Gen
3.1 nM | 6 of 6 | HLSQSVLYESRNKNSVA | NASQREQ | QQYHRLPLS | GP_Gen
1.8 nM | 6 of 6 | HLSQMTDLESVHKNSIA | DLMTRES | QQYHRLPLS | En_HC
4.0 nM | 3 of 6 | MISDVMNTLTRNGDNVA | DLQEREQ | QQYFRLPLS | En_Gen
900 pM | 6 of 6 | KSSQSFHYESRNKNSVA | GASTRES | QQYHRLPLS | GP_HC
1.8 nM | 6 of 6 | KSSQSYLYESRNKNSVA | EASTREQ | QQYHRLPLS | GP_HC
480 pM | 6 of 6 | KLSQSWLYDSRNKNSVA | NASTRES | QQYHRLPLS | GP_HC
4.1 nM | 6 of 6 | KIQSHLSQSFAIWNNIA | DREQSAE | QQYHQLPLV | En_Gibbs
3.9 nM | 6 of 6 | KFSQGYWYEQRNKNSVA | NASQRES | QQYHRLPLS | GP_Gibbs
670 pM | 6 of 6 | KSSQSVLYERRNKNSVA | SASTREL | QQYHRLPLS | Ctrl
14 nM | 6 of 6 | KLSGSVMMLSRADNSVA | DASTRES | QQYHRLPLS | GP_Gibbs
1.0 nM | 6 of 6 | NLMNGGSELSVWSRNIA | DANIRES | QQYFRLPLL | En_Gibbs
nd | 0 of 6 | KSSQSVLIEERNKNSVA | WASTREV | QTYYRLPLS | Ctrl
860 pM | 6 of 6 | KVSQSVLYESGTKNSVA | DASSRES | QQYHRLPLS | GP_HC
1.8 nM | 6 of 6 | KSSISYGYESRNKNSVA | AASTRES | QQYHRLPLS | GP_HC
2.7 nM | 6 of 6 | QISLNGWDGTKKEYAVA | EGTKRDA | QQYSRLPLS | En_Gibbs
810 pM | 6 of 6 | KSSESGLYESRMKNSVA | EASTRES | QQYHRLPLS | GP_HC
2.7 nM | 6 of 6 | KVSQSILYESGTKNSVA | NASSRES | QQYHRLPLS | GP_HC
5.4 nM | 6 of 6 | QLDLRMNEQGMQPAAIA | GATNRHT | QQYQKLPLS | En_Gibbs
1.5 nM | 6 of 6 | MISDLTQYGSRNKNSVA | DLSTRGS | QQYHRLPLS | En_HC
460 pM | 6 of 6 | ILSQSELYESRNKNSVA | NASTRMS | QQYHRLPLS | GP_Gen

The first 5 entries again:

{"CDR-L1": "KLPLATMQESVSKNSVA", "CDR-L2": "ELSTRGS", "CDR-L3": "QQYHRLPLS", "group": "En_HC", "apparent Kd": "1.8 nM", "replicates with signal": "6 of 6"}
{"CDR-L1": "HLSKPWELGHPSTNAVA", "CDR-L2": "NNDVAMA", "CDR-L3": "QQYSRLPLS", "group": "En_Gibbs", "apparent Kd": "1.4 nM", "replicates with signal": "6 of 6"}
{"CDR-L1": "VLSASELYEDRPKNSVA", "CDR-L2": "NASQRMQ", "CDR-L3": "QQYHRLPLS", "group": "GP_Gibbs", "apparent Kd": "1.1 nM", "replicates with signal": "6 of 6"}
{"CDR-L1": "HLSQSVDMESVHKNSIA", "CDR-L2": "DLMTRES", "CDR-L3": "QQYHRLPLS", "group": "En_HC", "apparent Kd": "1.2 nM", "replicates with signal": "6 of 6"}
{"CDR-L1": "KVSQSVLYNSRNKNSVA", "CDR-L2": "WASTRES", "CDR-L3": "QQYHRLPLS", "group": "Ctrl", "apparent Kd": "5.6 nM", "replicates with signal": "6 of 6"}

The authors averaged sequences with at least three values out of six and counted those with two or fewer as poor binders.
Values of this round are not directly comparable with the first-round values of the same sequences.
Background: pairings of all light chain designs with three empty control strains gave a value in 4% of cases (median 430 nM, 5th percentile 38 nM). Values in that range, when seen in few replicates, are hard to tell from nonspecific mating.